Test system: pp 28-luciferase expressing CMV (Towne)
Type: cell-based, human CMV
Text: A recombinant virus expressing luciferase reporter gene under the control of UL99 (pp 28) late promoter was generated by insertion of the reporter gene between the US9 and US10 ORFs in the Towne genome. […] Ahn J H, Hayward G S. Disruption of PML-associated nuclear bodies by IE1 correlates with efficient early stages of viral gene expression and DNA replication in human cytomegalovirus infection. Virology. 2000; 274:39-55.
Towne-GFP, Towne-luciferase, and SB viruses were used in these assays. HFF or HEL were grown to subconfluent monolayers and infected with the CMV viruses at MOI 0.1 to 3. […] J Mol Med. 2002; 80:233-242. The concentration of each compound was calculated and adjusted by volume such that it was constant throughout the experiment. Following 90 minute incubation, media was replaced with fresh media containing the drug used. Infected and treated cells were incubated at 37° C. in a 5% CO2 atmosphere for 3-10 days depending on the virus and the anti-viral assay. The recombinant luciferase-expressing virus was incubated for 72 hours, the GFP virus was incubated for 5 days, and the clinical isolate for 10 days. All experiments were subsequently repeated with compounds added to wells just after viral inoculation.

Compound: Nc1nc(O)c2ncn(COC(CO)CO)c2n1 [GCV, Ganciclovir]
- times more selective than the monomers (from SI of Table 1): approximately 10 times
- Selectivity index (SI) (ratio between CC50 and EC50): 44 ± 6.2

Source: US8883765B2, “Anti-cytomegalovirus activity of artemisinin-derived dimers” (The John Hopkins University, priority 2009, dated 2014)
